The results in this text go back to patent US6066628A, “Non-iron metalloporphyrins and methods of use” (Emory University, priority 1998, dated 2000).

The test system of experiment [1] is bacteria. The experiment is classed as cell-based. The following applies: absence of Hb/heme.
Experiment [2] concerns E. coli EB53 (hemPR^+). Put plainly: Growth inhibition on Nutrient Broth Dipyridyl plates. The following applies: NBD 0.1 mM plates.

With `C=CC1=C(C)c2cc3[n-]c(cc4[n-]c(cc5nc(cc1n2)C(C)=C5C=C)c(C)c4CCC(=O)[O-])c(CCC(=O)[O-])c3C.[H+].[H+].[Mn+2]` [Mn-PPIX, Manganese protoporphyrin IX], the “inhibition of growth of heme-utilizing bacteria” value in experiment [1] is “inhibited growth of heme-utilizing bacteria in the absence of Hb/heme”.

In the case of `C=Cc1c2[n-]c(c1C)/C=c1\[n-]/c(c(C)c1C=C)=C\c1[n-]c(c(CCC(=O)O)c1C)C=c1[n-]/c(c(C)c1CCC(=O)O)=C\2.[Sn+4]` [Sn-PPIX, tin-protoporphyrin IX], in experiment [2], the inhibition of growth result is “but not Sn-PPIX and Mn-meso-tetra-4-sulfonatophenyl porphine, inhibited growth”.

Consider `O=S(=O)([O-])c1ccc(-c2c3nc(c(-c4ccc(S(=O)(=O)[O-])cc4)c4ccc([n-]4)c(-c4ccc(S(=O)(=O)[O-])cc4)c4nc(c(-c5ccc(S(=O)(=O)[O-])cc5)c5ccc2[n-]5)C=C4)C=C3)cc1.[Cl-].[Mn+3]` [Mn-meso, Mnmeso-tetra(4-sulfonatophenyl)-porphine chloride], for which, in experiment [2], the inhibition of growth result is “but not Sn-PPIX and Mn-meso-tetra-4-sulfonatophenyl porphine, inhibited growth”.
